The values that follow come from patent US20080003627A1, “SYSTEM FOR BIOSYNTHESIS OF FIREFLY LU[…] WITH NATURAL L-CYSTEINE OR DERIVATIVES THEREOF AND LU[…] SOLUTIONS CONTAINING THE SYSTEM” (NATIONAL INSTITUTE OF ADVANCED INDUSTRIAL SCIENCE AND …, priority 2004, published 2008).

By UniProt entry, the sequences of proteins in these tests, tags left out.
UniProt P08659, whole entry: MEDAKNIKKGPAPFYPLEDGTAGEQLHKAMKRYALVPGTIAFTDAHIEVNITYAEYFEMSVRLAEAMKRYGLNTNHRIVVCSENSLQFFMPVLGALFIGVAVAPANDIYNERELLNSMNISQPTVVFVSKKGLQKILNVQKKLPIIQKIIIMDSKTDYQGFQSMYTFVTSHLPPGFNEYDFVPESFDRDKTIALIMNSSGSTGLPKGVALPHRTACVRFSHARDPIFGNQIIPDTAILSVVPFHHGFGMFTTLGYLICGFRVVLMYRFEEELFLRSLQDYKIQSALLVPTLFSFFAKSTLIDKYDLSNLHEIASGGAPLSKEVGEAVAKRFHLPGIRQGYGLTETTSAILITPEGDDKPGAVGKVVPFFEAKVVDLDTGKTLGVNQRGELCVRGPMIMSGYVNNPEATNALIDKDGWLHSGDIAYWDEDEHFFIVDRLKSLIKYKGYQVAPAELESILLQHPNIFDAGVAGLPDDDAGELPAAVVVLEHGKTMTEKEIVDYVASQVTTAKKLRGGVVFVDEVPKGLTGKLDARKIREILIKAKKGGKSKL

Structures are written as SMILES.

The assay has as its target firefly luciferase (Photinus pyralis, UniProt P08659). Nature of the assay: firefly luminescence reaction (luminescence activity as substrate). Type of assay: biochemical. To be noted: ATP, Mg ion, luminometer.

In the case of `O=C(O)[C@H]1CSC(c2nc3ccc(O)cc3s2)=N1` [firefly D-luciferin, reference compound], the “luminescence activity (produces luminescence with luciferase)” value is “produces the luminescence”.

On to `O=C(O)[C@@H]1CSC(c2nc3ccc(O)cc3s2)=N1` [firefly L-luciferin], for which the “luminescence activity (produces luminescence with luciferase)” value is recorded as “no luminescence activity”.
